{"sequences": {"note": "Amino acid sequences for entries named in this document (tags omitted). A change or cut given only in a name is not applied to a line headed by its entry.", "UniProt P41146": "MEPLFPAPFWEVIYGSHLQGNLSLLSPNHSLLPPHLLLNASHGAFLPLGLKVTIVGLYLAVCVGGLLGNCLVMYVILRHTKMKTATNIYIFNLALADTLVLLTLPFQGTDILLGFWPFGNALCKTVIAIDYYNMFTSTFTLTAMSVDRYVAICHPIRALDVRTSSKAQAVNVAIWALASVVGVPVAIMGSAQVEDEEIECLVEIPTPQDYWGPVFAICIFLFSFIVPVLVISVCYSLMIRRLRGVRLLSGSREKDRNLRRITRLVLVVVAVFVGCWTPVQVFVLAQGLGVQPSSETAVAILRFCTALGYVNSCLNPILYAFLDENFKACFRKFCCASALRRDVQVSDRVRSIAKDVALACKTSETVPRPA"}, "source": "ChEMBL document CHEMBL1759965", "about": "“Synthesis and pharmacological evaluation of bivalent antagonists of the nociceptin opioid receptor” (Eur J Med Chem, 2011)", "target": "Nociceptin receptor (Homo sapiens, UniProt P41146)", "settings": "hek293"}
{"smiles": "CC(C)[C@H]1CC[C@@H](N2CCC3(CC2)C(=O)N(CCCCCCCCCN2CN(c4ccccc4)C4(CCN([C@H]5CC[C@@H](C(C)C)CC5)CC4)C2=O)CN3c2ccccc2)CC1", "values": [{"measurement": "IC50", "value": 25.2, "unit": "nM"}]}
